## Apparent affinities of Ab-91 variants for a coronavirus HR2 peptide

Values reported by Engelhart et al. 2022, doi:10.1038/s41597-022-01779-4 (FLAb copy).

Antigen: PDVDLGDISGINAS, a 14-residue peptide of the SARS-CoV-2 spike HR2 region.

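Phage display of a naive human antibody library on the peptide gave the parent. The library (AAYL51) carries one to three amino acid substitutions per variant, with no insertions or deletions. In AlphaSeq, yeast of one mating type display the scFv and yeast of the other type display the target. The frequency of each diploid, read from paired DNA barcodes, reflects how well the two displayed proteins bind. A regression on co-assayed BCL2-family reference pairs converts the normalised counts of each replicate to an apparent Kd. Mating was done three times.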

Parent scFv Ab-91: VL joined to VH by the linker GGGGSGGGGSGGGGS. Changes lie in the heavy chain CDRs alone.
VL: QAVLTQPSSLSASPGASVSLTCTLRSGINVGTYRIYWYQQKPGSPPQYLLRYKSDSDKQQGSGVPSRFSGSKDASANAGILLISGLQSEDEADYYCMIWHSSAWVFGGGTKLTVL
VH: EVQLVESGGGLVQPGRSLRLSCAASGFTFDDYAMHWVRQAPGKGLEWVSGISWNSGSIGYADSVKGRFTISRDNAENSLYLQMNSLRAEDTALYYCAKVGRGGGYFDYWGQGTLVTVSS

Sequences are complete VH domains.
Affinities are written as log10 Kd with Kd in nM; a lower number is a better binder.
An entry "n.d." has no value in the source: the pair was not observed among the diploids in that replicate. This suggests poor binding but is not conclusive.

VH,"replicates, log10 nM",empty controls
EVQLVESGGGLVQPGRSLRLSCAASGFMFDDYAMHWVRQAPGKGLEWVSGISWNSYSIGYADSVKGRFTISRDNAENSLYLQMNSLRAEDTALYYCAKVGRGGGYFDTWGQGTLVTVSS,2.52 / 2.19 / 2.37,3 of 9 (4.28)
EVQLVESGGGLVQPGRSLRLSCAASGFTFDDYAMHWVRQAPGKGLEWVSAISWNSTSIEYADSVKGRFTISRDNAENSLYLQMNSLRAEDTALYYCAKVGRGGGYFDYWGQGTLVTVSS,n.d. / n.d. / n.d.,2 of 9 (3.39)
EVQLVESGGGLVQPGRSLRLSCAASGFTFDDYAMHWVRQAPGKGLEWVSGISWNSGSAGYADSVKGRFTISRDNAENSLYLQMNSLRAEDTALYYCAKVIRGGGYFDNWGQGTLVTVSS,n.d. / n.d. / n.d.,0 of 9
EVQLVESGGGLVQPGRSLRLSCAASGFTFDDYAMHWVRQAPGKGLEWVSGSSWNSGSIGYADSVKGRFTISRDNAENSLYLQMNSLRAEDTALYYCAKVGRGGGTFDYWGQGTLVTVSS,5.73 / n.d. / n.d.,0 of 9
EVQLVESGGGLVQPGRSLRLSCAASGFTFDDYAMHWVRQAPGKGLEWVSGISWNSWMIGYADSVKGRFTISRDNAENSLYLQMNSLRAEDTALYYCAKVGRGGGRFDYWGQGTLVTVSS,2.52 / 2.08 / 1.68,6 of 9 (3.63)
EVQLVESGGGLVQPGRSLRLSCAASGFNFDDYAMHWVRQAPGKGLEWVSGISWNSGSIGYADSVKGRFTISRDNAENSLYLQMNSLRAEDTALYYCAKVGRPGGYFDYWGQGTLVTVSS,3.97 / 3.66 / n.d.,3 of 9 (5.37)
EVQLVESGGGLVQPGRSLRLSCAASGFTHDDYAMHWVRQAPGKGLEWVSGISWNSGSKGYADSVKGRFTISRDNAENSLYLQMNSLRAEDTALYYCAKVGRGGFYFDYWGQGTLVTVSS,n.d. / 4.88 / 4.85,1 of 9 (3.32)
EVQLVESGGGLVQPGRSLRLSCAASGFTFVDYAAHWVRQAPGKGLEWVSGISWNSGPIGYADSVKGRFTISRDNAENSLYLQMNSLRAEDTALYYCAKVGRGGGYFDYWGQGTLVTVSS,n.d. / n.d. / n.d.,1 of 9 (4.91)
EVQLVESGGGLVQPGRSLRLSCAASGFTFDDYAMHWVRQAPGKGLEWVSGISWNSGSICYADSVKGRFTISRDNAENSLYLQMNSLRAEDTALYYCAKVGRGGGYFDYWGQGTLVTVSS,4.14 / 4.80 / 4.75,1 of 9 (4.59)
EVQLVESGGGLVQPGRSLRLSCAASGFTFDDLAMHWVRQAPGKGLEWVSGISWNSGSIGYADSVKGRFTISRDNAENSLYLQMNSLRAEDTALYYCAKVGRVGFYFDYWGQGTLVTVSS,n.d. / n.d. / n.d.,1 of 9 (3.94)
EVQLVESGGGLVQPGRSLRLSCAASGFTFDDYAKHWVRQAPGKGLEWVSGISWNSGSPGYADSVHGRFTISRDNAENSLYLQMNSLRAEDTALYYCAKVGRGGGYFDYWGQGTLVTVSS,n.d. / n.d. / n.d.,1 of 9 (3.46)
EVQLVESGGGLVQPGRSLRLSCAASGFTFDSYAMHWVRQAPGKGLEWVSQISWNSSSIGYADSVKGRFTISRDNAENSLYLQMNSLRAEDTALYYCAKVGRGGGYFDYWGQGTLVTVSS,4.61 / 4.94 / n.d.,3 of 9 (5.04)
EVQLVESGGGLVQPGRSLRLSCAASGYTFDDYHMKWVRQAPGKGLEWVSGISWNSGSIGYADSVKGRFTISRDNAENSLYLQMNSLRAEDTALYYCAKVGRGGGYFDYWGQGTLVTVSS,4.18 / 4.92 / 5.08,7 of 9 (5.04)
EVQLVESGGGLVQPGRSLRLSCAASGFTFDDYAWHWVRQAPGKGLEWVSGISWNCGSIGYADSVKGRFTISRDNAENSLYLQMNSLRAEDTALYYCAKPGRGGGYFDYWGQGTLVTVSS,n.d. / n.d. / n.d.,1 of 9 (5.35)
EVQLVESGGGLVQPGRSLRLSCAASGKTFDQYAMHWVRQAPGKGLEWVSGISWNSGSIGYADSVKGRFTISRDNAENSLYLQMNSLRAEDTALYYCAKVGQGGGYFDYWGQGTLVTVSS,2.40 / 2.31 / 1.77,0 of 9
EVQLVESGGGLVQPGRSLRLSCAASGFTFGDYAIHWVRQAPGKGLEWVSGISWNSGSIGYADSVKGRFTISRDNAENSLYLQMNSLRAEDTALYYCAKVGEGGGYFDYWGQGTLVTVSS,4.84 / n.d. / n.d.,8 of 9 (5.10)

The last 3 entries again:

VH,"replicates, log10 nM",empty controls
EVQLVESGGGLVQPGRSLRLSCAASGFTFDDYAWHWVRQAPGKGLEWVSGISWNCGSIGYADSVKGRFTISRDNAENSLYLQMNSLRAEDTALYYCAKPGRGGGYFDYWGQGTLVTVSS,n.d. / n.d. / n.d.,1 of 9 (5.35)
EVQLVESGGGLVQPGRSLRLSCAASGKTFDQYAMHWVRQAPGKGLEWVSGISWNSGSIGYADSVKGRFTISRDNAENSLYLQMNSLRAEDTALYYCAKVGQGGGYFDYWGQGTLVTVSS,2.40 / 2.31 / 1.77,0 of 9
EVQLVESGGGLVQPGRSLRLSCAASGFTFGDYAIHWVRQAPGKGLEWVSGISWNSGSIGYADSVKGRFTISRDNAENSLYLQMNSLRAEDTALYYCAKVGEGGGYFDYWGQGTLVTVSS,4.84 / n.d. / n.d.,8 of 9 (5.10)

Parent in this assay: reference entry 1.86, copy in this library 0.88.
Three control strains display no target. For library AAYL51, 21% of the pairings with them gave a signal, with a median of 4.54 and one signal in twenty below 3.26, so weak values seen in few replicates may be background. Also given: how often the same scFv was detected with the empty control strains, with their mean in brackets.